PubChem BioAssay AID1490 (National Center for Advancing Translational Sciences (NCATS), 2009)
This is a selection; strong and weak results do not stand in their true shares. Records with an inconclusive call do not appear. Some structures show a salt or complex split into parts, the way the source records it. Active and inactive are the calls of the source. Calls come from the whole dose curve; as a rule, active = well fitted inhibition curve with a large enough effect; inconclusive = small, poorly fitted or top-dose-only effect, or another doubt; inactive = no such curve, though single readings can be large or run the other way.

Biological target: 4'-phosphopantetheinyl transferase ffp (Bacillus subtilis) (UniProt Q9F4F7)
Assay: qHTS Assay for Inhibitors of Bacillus subtilis Sfp phosphopantetheinyl transferase (PPTase);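 note: the enzyme is Sfp with the accession as filed and its product quenches rhodamine fluorescence; 0% = enzyme reaction without inhibitor and -100% = no enzyme wells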
Conditions: Biochemical Sfp PPTase activity

SMILES	largest response in the series, negative = inhibition
O=[N+]([O-])c1cc([N+](=O)[O-])c(NCC2CCS(=O)(=O)C2)c([N+](=O)[O-])c1 (configuration not stated)	inactive: -20.8%
COc1ccc2c(c1O)-c1c(O)c(OC)cc3c1[C@H](C2)[N+](C)(C)CC3.O=[N+]([O-])c1cc([N+](=O)[O-])c([O-])c([N+](=O)[O-])c1[O-]	inactive: 0.668%
O=C(OC1CN2CCC1CC2)c1ccc([N+](=O)[O-])cc1 (configuration not stated)	inactive: -1.96%
O=[N+]([O-])c1cc([N+](=O)[O-])c(OC2CCCCC2O)c([N+](=O)[O-])c1 (configuration not stated)	inactive: -4.86%
O=C(O)c1cccc(Nc2c([N+](=O)[O-])cc([N+](=O)[O-])cc2[N+](=O)[O-])c1	inactive: 0.167%
N/C(=N\O)c1c(N)no[n+]1[O-]	inactive: 0.852%
CCOC(=O)C(CC)C1=NC(C)(C)Cc2ccccc21.O=[N+]([O-])c1cc([N+](=O)[O-])c(O)c([N+](=O)[O-])c1 (configuration not stated)	inactive: 13.7%
